Measured values as given in patent US20210087533A1, “CANINE EPITHELIAL ORGANOIDS AND METHODS OF MAKING, RECOVERING, AND USE” (Iowa State University Research Foundation, Inc., priority 2019, published 2021).

Columns and labels:
TCC organoids = assay: MTT cell viability (cytotoxicity) assay, TCC organoids; assay type: cell-based, canine; conditions: 0.01 or 0.1 ug/ml MMC, 48 hours
[1] = test system: healthy colon or ileum organoids; conditions: 0.01 or 0.1 ug/ml MMC, 48 hours

## CO[C@@]12[C@H](COC(N)=O)C3=C(C(=O)C(C)=C(N)C3=O)N1C[C@@H]1N[C@@H]12 [Mitomycin C]
TCC organoids
  cytotoxicity (MTT): not cytotoxic
[1]
  cytotoxicity (MTT): not cytotoxic
